# In PubChem BioAssay AID504408 (Broad Institute, 2011):
# Only a part is listed here, and it is no random draw. Some salts or complexes appear as unconnected parts, following the source record. Active and inactive are the calls of the source.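 The calls were made as follows: active = mean replicate activation of at least 50% with a set share of replicates each reaching 50%; inconclusive = only one of those two conditions met; inactive = mean below 50% and too few replicates reaching it.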
# Assay: HSF-1 activators, primary screen, NIH3T3-HGL cells, MG132 stress, luminescence, single point (AID 504408);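 also: 0% = median of the neutral control wells and 100% = twice that signal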
# Settings: NIH3T3-HGL HSF-1 luciferase reporter, MG132, 8 h; at 9 µM; hits give high values; 100% = twice DMSO control signal
row,Structure (SMILES),activation
1,CP(=O)(Nc1ccccc1F)Oc1ccccc1 (stereo not given),inactive: -86.3%
2,CC(C)c1ccc(OP(C)(=O)Nc2ccc(SC(F)(F)F)cc2)cc1 (stereo not given),inactive: 27.7%
3,COc1ccc2c(c1O)-c1c(O)c(OC)cc3c1[C@H](C2)[N+](C)(C)CC3.O=[N+]([O-])c1cc([N+](=O)[O-])c([O-])c([N+](=O)[O-])c1[O-],inactive: -5.06%
4,O=C(OC1CN2CCC1CC2)c1ccc([N+](=O)[O-])cc1 (stereo not given),inactive: 5.36%
5,O=C(OCCN1CCN(CCOCc2ccccc2)CC1)C(O)(c1ccccc1)c1ccccc1,inactive: -4.61%
6,CCOC(=O)c1ccc(NP(C)(=O)Oc2ccc(F)cc2)cc1 (stereo not given),inactive: 11.2%
7,COc1ccc(OP(C)(=O)Nc2ccc(SC(F)(F)F)cc2)cc1 (stereo not given),inactive: 45.5%
8,CP(=O)(Nc1ccccc1)Oc1ccc(F)cc1 (stereo not given),inactive: -14.8%
9,CCCCCOc1ccc(NP(C)(=O)Oc2ccc(Cl)cc2Cl)cc1 (stereo not given),inactive: 10.7%
10,O=[N+]([O-])c1cc([N+](=O)[O-])c(OC2CCCCC2O)c([N+](=O)[O-])c1 (stereo not given),inactive: -16%
11,CCN(CC)CCCOC(=O)C(O)(c1ccccc1)C1CCCCC1 (stereo not given),inactive: 7.38%
12,CN(C)CCOC(=O)C(O)(c1ccccc1)C1CCCCC1 (stereo not given),inactive: -0.71%
13,COc1ccc(NP(C)(=O)Oc2ccccc2OC)cc1 (stereo not given),inactive: 2.76%
14,COc1ccc(OP(C)(=O)Nc2cccc(Br)c2)cc1 (stereo not given),inactive: 36.9%
15,O=[N+]([O-])c1ccc(OP2(=O)COCCO2)cc1 (stereo not given),inactive: 9.93%
16,O=[N+]([O-])c1cc([N+](=O)[O-])c(NCC2CCS(=O)(=O)C2)c([N+](=O)[O-])c1 (stereo not given),inactive: -27.1%
17,Cc1cc(-c2cccc3ccccc23)c(C)cn1.O=[N+]([O-])c1cc([N+](=O)[O-])c(O)c([N+](=O)[O-])c1,inactive: -9.03%
18,CCOP(C)(=S)SCC(=O)NC(C)(CC)C(=O)O (stereo not given),inactive: 20.3%
19,CP(=O)(Nc1ccc(SC(F)(F)F)cc1)Oc1ccc(F)cc1 (stereo not given),inactive: -15.2%
20,Cc1ccccc1NP(C)(=O)Nc1ccccc1C,inactive: 22.8%
21,CP(=O)(Nc1ccc2c(c1)OCCO2)Oc1ccccc1 (stereo not given),inactive: -18.6%
22,COc1ccccc1OP(C)(=O)Nc1c(C)n(C)n(-c2ccccc2)c1=O (stereo not given),inactive: 8.43%

row,Structure (SMILES),activation
1,O=C(OCCCN1CCCC1)C(O)(c1ccccc1)C1CCCCC1 (stereo not given),inactive: -11.6%
2,CP(=O)(Oc1ccccc1)N1CCOC1=O (stereo not given),inactive: -15.6%
3,CCc1ccc(OP(C)(=O)Nc2cccnc2)cc1 (stereo not given),inactive: -3.96%
4,CCN(CC)CC(O)COC(=O)C(O)(c1ccccc1)C1CCCCC1 (stereo not given),inactive: 30.2%
5,COc1ccc(OP(C)(=O)Nc2ccc(Br)cc2)cc1 (stereo not given),inactive: 16.1%
6,CN(C)C(=O)c1c([N+](=O)[O-])cc([N+](=O)[O-])cc1[N+](=O)[O-],inactive: 48.5%
7,COc1ccccc1OP(C)(=O)Nc1ccccc1Br (stereo not given),inactive: 5.83%
8,CC(C)(C)c1ccc(OP(C)(=O)O)cc1,inactive: 5.36%
9,CP(=O)(Nc1ccc(Cl)cc1)Oc1ccc(F)cc1 (stereo not given),inactive: 16.8%
10,CCOC(=O)c1ccc(NP(C)(=O)Oc2ccc(Cl)cc2)cc1 (stereo not given),inactive: 15.5%
11,CP(=O)(OC12CC3CC(CC(C3)C1)C2)OC12CC3CC(CC(C3)C1)C2,inactive: -10.2%
12,Nc1ccc2c(ccc3cccnc32)n1.O=[N+]([O-])c1cc([N+](=O)[O-])c(O)c([N+](=O)[O-])c1,inactive: -9.75%
13,COc1ccccc1OP(C)(=O)Nc1ccc(C)c(C)c1 (stereo not given),inactive: 15.2%
14,CCCCCCCCCCCCCCCC1C[N+](C)(C)CCOP(C)(=O)O1 (stereo not given),inactive: -3.56%
15,CP(=O)(Nc1ccc(Cl)cc1Cl)Oc1ccccc1 (stereo not given),inactive: 7.14%
16,Cc1nc2ccc3ccccc3c2o1.O=[N+]([O-])c1cc([N+](=O)[O-])c(O)c([N+](=O)[O-])c1,inactive: 43.7%
17,COc1ccc(OP(C)(=O)Nc2ccccn2)cc1 (stereo not given),inactive: 12%
18,CN(C)CCOC(=O)C(O)(c1ccccc1)C1CCCC1 (stereo not given),inactive: 0.824%
19,COc1ccccc1OP(C)(=O)Nc1ccc(Br)cc1 (stereo not given),inactive: 4.69%
20,CP(=O)(Nc1ccccn1)Oc1ccccc1 (stereo not given),inactive: -5.5%
21,COc1ccccc1OP(C)(=O)Nc1ccc(C)cc1C (stereo not given),inactive: 0.631%
22,CCc1ccc(OP(C)(=O)O)cc1,inactive: -12%

row,Structure (SMILES),activation
1,Cc1c(NP(C)(=O)Oc2ccc(C(C)C)cc2)c(=O)n(-c2ccccc2)n1C (stereo not given),inactive: -12%
2,CCN(CC)CCCOC(=O)C(O)(c1ccccc1)c1ccccc1,inactive: 7.38%
3,O=[N+]([O-])c1ccc2c(c1)C=Nc1ccccc1O2,inactive: 10.1%
4,CC(C)(C)c1ccc(OP(C)(=O)Nc2ccc(SC(F)(F)F)cc2)cc1 (stereo not given),inactive: 24.3%
5,Cc1cccc(C)c1OP(C)(N)=O (stereo not given),inactive: -8.73%
6,O=[N+]([O-])c1cc([N+](=O)[O-])c(Nc2cccnc2)c([N+](=O)[O-])c1,inactive: 23.1%
7,Cc1cc(C)cc(OP(C)(N)=O)c1 (stereo not given),inactive: -13.7%
8,COc1ccccc1OP(C)(=O)Nc1cc(Cl)ccc1C (stereo not given),inactive: 5.52%
9,COc1ccc(OP(C)(=O)Nc2cccc(F)c2)cc1 (stereo not given),inactive: -5.32%
10,COc1ccccc1OP(C)(=O)Nc1ccc(C)cc1 (stereo not given),inactive: -1.42%
11,Cc1ccc(NP(C)(=O)Oc2ccccc2)c(C)c1 (stereo not given),inactive: 13.5%
12,CCOC(=O)c1ccc(NP(C)(=O)Oc2ccccc2)cc1 (stereo not given),inactive: 13.1%
13,CP(=O)(Nc1ccccc1Br)Oc1ccccc1 (stereo not given),inactive: 18.1%
14,COc1ccccc1OP(C)(=O)Nc1ccccc1 (stereo not given),inactive: -0.746%
15,CP(=S)(Nn1cnnc1)Oc1ccccc1 (stereo not given),inactive: -4.68%
16,CP(=O)(NC(=O)Nc1ccccc1)Oc1ccccc1 (stereo not given),inactive: -9.84%
17,CCc1ccc(OP(C)(=O)N2CCN(c3ccc([N+](=O)[O-])cc3)CC2)cc1 (stereo not given),inactive: -0.881%
18,Cc1cc(C)cc(OP(C)(=O)Nc2ccc(SC(F)(F)F)cc2)c1 (stereo not given),inactive: -11%
19,Cc1cccc(C)c1OP(C)(=O)Nc1ccc(SC(F)(F)F)cc1 (stereo not given),inactive: 7.26%
20,CP(=O)(Nc1ccc(SC(F)(F)F)cc1)Oc1ccc(Cl)cc1 (stereo not given),inactive: 4.58%
21,CP(=O)(Oc1ccccc1)OC(c1ccccc1)C(F)(F)F (stereo not given),inactive: -5.14%
22,CP(=O)(Nc1ccccn1)Oc1ccc(Cl)cc1 (stereo not given),inactive: -5.39%

row,Structure (SMILES),activation
1,CCOC(=O)c1ccc(NP(C)(=O)Oc2ccc(OC)cc2)cc1 (stereo not given),inactive: -15%
2,O=[N+]([O-])c1cc([N+](=O)[O-])c(O)c([N+](=O)[O-])c1.c1ccc(Oc2ccncc2)cc1,inactive: -10.8%
3,CCOP(C)(=S)SCC(=O)NC(C)C(=O)O (stereo not given),inactive: -7.63%
4,O=[N+]([O-])c1cc([N+](=O)[O-])c(-n2nnc3ccccc32)c([N+](=O)[O-])c1,inactive: -6.3%
5,O=[N+]([O-])c1cc([N+](=O)[O-])c(-c2cnn(-c3ccccc3)c2)c([N+](=O)[O-])c1,inactive: 11.7%
6,O=[N+]([O-])c1cc([N+](=O)[O-])c(Nc2nnnn2CCO)c([N+](=O)[O-])c1,inactive: -2.46%
7,CCOC(=O)C(CC)C1=NC(C)(C)Cc2ccccc21.O=[N+]([O-])c1cc([N+](=O)[O-])c(O)c([N+](=O)[O-])c1 (stereo not given),inactive: -4.97%
8,CCCOc1ccc(NP(C)(=O)Oc2ccc(Cl)cc2)cc1 (stereo not given),inactive: 8.97%
9,CP(=O)(Nc1ccc(SC(F)(F)F)cc1)Oc1ccccc1 (stereo not given),inactive: 39.2%
10,COc1ccccc1OP(C)(=O)Nc1c(C)cccc1C (stereo not given),inactive: 9.8%
11,CN1CCCCC1COC(=O)C1(O)c2ccccc2CCc2ccccc21 (stereo not given),inactive: -6.08%
12,O=C(O)c1cccc(Nc2c([N+](=O)[O-])cc([N+](=O)[O-])cc2[N+](=O)[O-])c1,inactive: -21.4%
13,CC1=NCCc2c1[nH]c1ccccc21.O=[N+]([O-])c1cc([N+](=O)[O-])c(O)c([N+](=O)[O-])c1,inactive: -11.9%
14,CCOC(=O)c1ccc(NP(C)(=O)Oc2cc(C)cc(C)c2)cc1 (stereo not given),inactive: -2.92%
15,Cc1cc(C)cc(OP(C)(=O)Nc2ccc(C)cc2C)c1 (stereo not given),inactive: 0.351%
16,COc1ccccc1OP(C)(=O)Nc1cccc(Br)c1 (stereo not given),inactive: -45.2%
17,Cc1ccc(C)c(NP(C)(=O)Oc2ccccc2)c1 (stereo not given),inactive: -1.61%
18,Cc1cc(C)cc(OP(C)(=O)Nc2ccccn2)c1 (stereo not given),inactive: 25.9%
19,CP(=O)(Nc1cccc(Br)c1)Oc1ccccc1 (stereo not given),inactive: 3.75%
